This experiment concerns the target 5-hydroxytryptamine receptor 1A (Rattus norvegicus, UniProt P19327). Put plainly: Displacement of [3H]-8-OH-DPAT from rat 5HT1A receptor. A general note: In a radioligand displacement assay an active substance lowers the binding of a labelled ligand.

By UniProt entry, the sequences of proteins in these tests, tags left out.
UniProt P19327, whole entry: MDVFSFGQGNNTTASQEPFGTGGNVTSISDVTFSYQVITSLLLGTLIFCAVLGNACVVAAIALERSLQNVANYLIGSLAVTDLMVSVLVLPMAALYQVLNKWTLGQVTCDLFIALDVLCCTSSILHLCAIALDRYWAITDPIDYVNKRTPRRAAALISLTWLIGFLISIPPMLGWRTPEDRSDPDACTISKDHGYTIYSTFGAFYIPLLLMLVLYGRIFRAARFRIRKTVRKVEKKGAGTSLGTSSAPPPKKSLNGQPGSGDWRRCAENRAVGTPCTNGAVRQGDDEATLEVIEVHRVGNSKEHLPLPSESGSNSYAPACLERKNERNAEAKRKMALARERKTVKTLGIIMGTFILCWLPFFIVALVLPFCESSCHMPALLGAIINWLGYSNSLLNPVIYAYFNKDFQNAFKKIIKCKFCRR

Usually IC50 stands for the midpoint of a concentration-inhibition curve.

Regarding `COc1ccc2[nH]cc(C3=CCNCC3)c2c1` [RU-24969], the IC50 came to 4 nM.

The values are drawn from ChEMBL document CHEMBL2375225, “Structure-activity relationship of 5-chloro-2-methyl-3-(1,2,3,6-tetrahydropyridin-4-yl)-1H-indole analogues as 5-HT(6) receptor agonists” (Eur J Med Chem, 2013).
